SMILES strings stand for the structures. This is a selection; strong and weak results do not stand in their true shares. Some results for these compounds are left out of this collection, so the calls shown say nothing about other tests. Calls of active or inactive are those of the source. The call rests on the fitted dose curve; in most records, active means well fitted activation curve with a large enough effect; inconclusive means small, poorly fitted or top-dose-only effect; inactive means no such curve, though single readings can be large or run the other way.
On the % scale 0 is the no-effect control and ±100 the full control effect.

Protein sequences, listed by entry. Tags and fused reporters are not part of them.
UniProt P14618, whole entry: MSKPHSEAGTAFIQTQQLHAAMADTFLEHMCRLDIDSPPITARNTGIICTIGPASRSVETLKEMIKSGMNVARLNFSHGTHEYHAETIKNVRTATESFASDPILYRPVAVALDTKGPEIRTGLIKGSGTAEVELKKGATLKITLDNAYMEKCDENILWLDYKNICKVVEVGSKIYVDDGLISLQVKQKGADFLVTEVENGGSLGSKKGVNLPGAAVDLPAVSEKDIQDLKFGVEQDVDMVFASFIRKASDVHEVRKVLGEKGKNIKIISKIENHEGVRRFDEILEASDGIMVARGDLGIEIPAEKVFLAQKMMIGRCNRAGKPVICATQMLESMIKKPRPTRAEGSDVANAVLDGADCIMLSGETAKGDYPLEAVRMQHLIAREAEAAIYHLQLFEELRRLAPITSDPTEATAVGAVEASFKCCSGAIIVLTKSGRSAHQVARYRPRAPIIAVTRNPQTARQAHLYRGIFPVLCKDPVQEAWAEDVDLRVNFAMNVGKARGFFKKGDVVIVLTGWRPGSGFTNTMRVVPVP

This assay concerns the target Pyruvate kinase PKM (Homo sapiens) (UniProt P14618). Nature of the assay: qHTS Assay for Activators of Human Muscle isoform 2 Pyruvate Kinase. Further: nearly all actives have a fitted effect of over 55% in size. Particulars: purified PKM2, Kinase-Glo ATP luminescence, 0% is enzyme alone, no compound; at 57.5 µM (top of the series). The text has this:
NIH Chemical Genomics Center [NCGC] Matthew G. Vander Heiden, M.D., Ph.D. [Harvard Medical School, 77 Avenue Louis Pasteur, Boston, MA 02115] MLPCN Grant: 1 R03 MH085679-01 NCGC Assay Overview: Human pyruvate kinase muscle 2 (hPK-M2) enzyme was supplied as a highly purified (>95% pure) preparation from Harvard Medical School and assayed for its ability to generate ATP from ADP using phosphoenolpyruvate (PEP) as a substrate. ATP generation was detected in a coupled reaction by luciferase-mediated luminescence, an ATP-dependent process. […] The enzyme was assayed at an intermediate level of activity to screen for both inhibitors and activators.
NCGC Assay Protocol Summary: Three uL of substrate mix (at r.t.) in assay buffer (50 mM Imidazole pH7.2, 50 mM KCl, 7 mM MgCl2, 0.01% Tween 20, 0.05% BSA) was dispensed into white solid bottom 1,536 well microtiter plates so that the final concentrations of substrates in the assay were 0.1 mM ADP and 0.5 mM PEP. 23 nL of compound were delivered by a pin tool and 1 uL of enzyme mix in assay buffer (4 degree Celsius) was added. Plates were incubated at room temperature for 1 hour. Two uL of detection mix (Kinase-Glo, Promega; at 4 degree Celsius protected from light) was added and luminescence read by a ViewLux (Perkin Elmer) at 5 second exposure/plate. Data were normalized to the uninhibited and AC100 inhibition (no enzyme). To monitor activation, the first column contained a titration of the activator, NCGC00031955-01 (16-point 1:2 dilutions in duplicate starting at 57 uM) and the first 16 rows of column 4 contained 57 uM of NCGC00031955-01.
(qHTS replaces the single test concentration by a dilution series.)
In the case of `COc1cccc(C(=O)NCC2(N3CCCCC3)CCCCC2)c1`, the activation was inactive: 2.23%. The figure for `O=C(OC1CN2CCC1CC2)C(CO)(c1ccccc1)c1ccccc1` (stereo not drawn) is inactive: -6.95%. With `COc1ccc(Br)c(C(=O)NCC2(N3CCCCC3)CCCCC2)c1`, the activation is inactive: -4.38%.

Consider `CN(C)c1cccc(C(=O)NCC2(N(C)C)CCCCC2)c1`, for which the activation was inactive: -4.13%. The figure for `O=C(NCC1(N2CCCCC2)CCCCC1)c1cc([N+](=O)[O-])ccc1Cl` is inactive: -8.08%; for `CCN(CC)CC(C)C(C)OC(=O)C(O)(c1ccccc1)c1ccccc1` (stereo not drawn) it is inactive: -0.143%; for `CC(C)N1C(=O)CC2(CCN(CCOC(=O)C(O)(c3ccccc3)c3ccccc3)CC2)C1=O` it is inactive: -0.0536%. As to `Cc1ccc(C(=O)NCC2(N3CCCCC3)CCCCC2)cc1`, the activation is inactive: -4.82%. Take `CN(C)C1CCCC1OC(=O)C(O)(c1ccccc1)c1ccccc1` (stereo not drawn): the activation was inactive: 1.58%. The figure for `Cc1ccccc1C(=O)NCC1(N2CCCCC2)CCCCC1` is inactive: 2.35%; for `O=C(NCC1(N2CCCCC2)CCCCC1)c1cc(F)c(F)cc1Cl` it is inactive: 1.97%. Regarding `CCN1CCCC(OC(=O)C2(O)c3ccccc3C=Cc3ccccc32)C1` (stereo not drawn), the activation was inactive: 1.63%. For the molecule `Cc1cc(C(=O)NCC2(N3CCCCC3)CCCCC2)ccc1[N+](=O)[O-]`, the activation was inactive: -3.3%.
